{"source": "patent US6106866A", "about": "“In vivo agents comprising cationic drugs, peptides and metal chelators with acidic saccharides and glycosaminoglycans, giving improved site-selective localization, uptake mechanism, sensitivity and kinetic-spatial profiles, including tumor sites” (Access Pharmaceuticals, Inc., priority 1995, dated 2000)", "experiment": "Binding of active to dermatan sulfate carrier (dialysis retention, 500 MW cutoff)", "conditions": "ca. 60:40 (active to dermatan sulfate)", "protocol": "Multiple batches of Ferrioxamine:Dermatan Sulfate Agent have been prepared.\nVincristine (Sigma Chemical Co., St. Louis) is dissolved in water and mixed with dermatan sulfate at ratios of between 90:10 and 30:70 (w/w) drug to dermatan sulfate.\nAmikacin, gentamicin and tobramycin (all obtained from Sigma Chemical Co., St. Louis) are dissolved in water and mixed with either dermatan sulfate (435 Type) or beef lung heparin (Hepar-Kabi-Pharmacia) at ratios of between 90:10 and 30:70 (w/w) drug to glycosaminoglycan."}
{"substance": "poly-L-lysine", "values": [{"measurement": "paired-ion binding of peptide to dermatan sulfate", "value": "Strong paired-ion binding"}]}
